Reference: patent US20250195530A1, “POLQ INHIBITORS” (ASTRAZENECA AB, priority 2022, published 2025)
pIC50: −log10 of the molar value.

By UniProt entry, the sequences of proteins in these tests, tags left out. Residues count along the entry.
UniProt O75417, 1780-2590: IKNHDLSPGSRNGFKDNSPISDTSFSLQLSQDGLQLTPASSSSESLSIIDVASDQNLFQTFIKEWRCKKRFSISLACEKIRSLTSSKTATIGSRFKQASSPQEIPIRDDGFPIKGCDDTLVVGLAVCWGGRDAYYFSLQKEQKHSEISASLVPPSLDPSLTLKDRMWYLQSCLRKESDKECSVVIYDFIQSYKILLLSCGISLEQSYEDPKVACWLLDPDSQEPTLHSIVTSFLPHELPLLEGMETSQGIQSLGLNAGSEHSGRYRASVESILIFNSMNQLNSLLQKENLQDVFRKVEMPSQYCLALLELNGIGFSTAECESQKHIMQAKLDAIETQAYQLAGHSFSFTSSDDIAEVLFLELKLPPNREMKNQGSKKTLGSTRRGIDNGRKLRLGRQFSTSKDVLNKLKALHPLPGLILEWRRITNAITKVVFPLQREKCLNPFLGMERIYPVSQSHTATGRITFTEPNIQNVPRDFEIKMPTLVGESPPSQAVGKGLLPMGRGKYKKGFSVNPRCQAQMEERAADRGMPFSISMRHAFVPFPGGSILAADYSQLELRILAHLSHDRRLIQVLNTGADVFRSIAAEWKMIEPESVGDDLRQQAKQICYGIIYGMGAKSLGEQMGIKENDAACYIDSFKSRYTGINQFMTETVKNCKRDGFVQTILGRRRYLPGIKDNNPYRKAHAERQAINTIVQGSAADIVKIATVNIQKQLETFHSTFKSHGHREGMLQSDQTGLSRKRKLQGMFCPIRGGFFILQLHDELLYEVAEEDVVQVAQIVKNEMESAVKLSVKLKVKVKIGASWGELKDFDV

Target: isolated polymerase domain (I1780-V2590) of DNA polymerase theta (Polθ) (Homo sapiens (Human), UniProt O75417)
Assay: biochemical

Row | Structure (SMILES) | pIC50
1 | COc1cnnc(Cn2c(-c3ccc(CC(N)=O)cc3Cl)nc3c(OC4(C)CC4)ncnc32)c1 [Example T22, 2-(3-chloro-4-(9-((5-methoxypyridazin-3-yl)methyl)-6-(1-methylcyclopropoxy)-9H-purin-8-yl)phenyl)acetamide] | 6.20
2 | Cc1ccnc(Cn2c(-c3ccc(N4CCNC4=O)cc3Cl)nc3c(OC4(C)CC4)ncnc32)c1 [Example T107, 1-(3-chloro-4-(6-(1-methylcyclopropoxy)-9-((4-methylpyridin-2-yl)methyl)-9H-purin-8-yl)phenyl)imidazolidin-2-one] | 8.20
3 | Cc1ccnc(Cn2c(-c3ccc(N4CCCC4=O)cc3Cl)nc3c(OC4(C)CC4)ncnc32)c1 [Example T171, 1-(3-chloro-4-(6-(1-methylcyclopropoxy)-9-((4-methylpyridin-2-yl)methyl)-9H-purin-8-yl)phenyl)pyrrolidin-2-one] | 8.20
4 | Cc1ccnc(Cn2c(-c3ccc(CC(=O)N4C[C@H]5C[C@@H](C4)O5)cc3Cl)nc3c(OC4(C)CC4)ncnc32)c1 [Example T547, rel-1-((1R,5S)-6-oxa-3-azabicyclo[3.1.1]heptan-3-yl)-2-(3-chloro-4-(6-(1-methylcyclopropoxy)-9-((4-methylpyridin-2-yl)methyl)-9H-purin-8-yl)phenyl)ethan-1-one] | 8.10
5 | CC(C)Oc1ncnc2c1nc(-c1ccc(OCCN3CCN(C)CC3)cc1)n2Cc1ccccc1 [Example B1, 9-benzyl-6-isopropoxy-8-(4-(2-(4-methyl-piperazin-1-yl)ethoxy)phenyl)-9H-purine] | 8.10
6 | Cc1ccnc(Cn2c(-c3ccc(OC4CN(C(N)=O)C4)cc3Cl)nc3c(OC4(C)CC4)ncnc32)c1 [Example T205, 3-(3-chloro-4-(6-(1-methylcyclopropoxy)-9-((4-methylpyridin-2-yl)methyl)-9H-purin-8-yl)phenoxy)azetidine-1-carboxamide] | 8.20
7 | CNC(=O)COc1ccc(-c2nc3c(OC4(C)CC4)ncnc3n2Cc2cncs2)c(Cl)c1 [Example T8, 2-(3-chloro-4-(6-(1-methylcyclopropoxy)-9-(thiazol-5-ylmethyl)-9H-purin-8-yl)phenoxy)-N-methylacetamide] | 7.10
8 | CC1(Oc2ncnc3c2nc(-c2ccc(CC(N)=O)cc2Cl)n3Cc2ccnc(C#N)c2)CC1 [Example T40, 2-(3-chloro-4-(9-((2-cyanopyridin-4-yl)methyl)-6-(1-methylcyclopropoxy)-9H-purin-8-yl)phenyl)acetamide] | 7.10
9 | Cc1nn(C)c(C)c1CCn1c(-c2ccc(CC(N)=O)cc2Cl)nc2c(OC3(C)CC3)ncnc21 [Example T147, 2-(3-chloro-4-(6-(1-methylcyclopropoxy)-9-(2-(1,3,5-trimethyl-1H-pyrazol-4-yl)ethyl)-9H-purin-8-yl)phenyl)acetamide] | ≤ 5.00
10 | CC1(Oc2ncnc3c2nc(-c2ccc(OCCN4CCN(C(=O)C(F)(F)F)CC4)cc2Cl)n3Cc2nnco2)CC1 [Example T192, 1-(4-(2-(4-(9-((1,3,4-oxadiazol-2-yl)methyl)-6-(1-methylcyclopropoxy)-9H-purin-8-yl)-3-chlorophenoxy)ethyl)piperazin-1-yl)-2,2,2-trifluoroethan-1-one] | 6.10
11 | CNS(=O)(=O)c1ccc(-c2nc3c(OC4(C)CC4)ncnc3n2Cc2cc(C)ccn2)c(Cl)c1 [Example T30, 3-chloro-N-methyl-4-(6-(1-methylcyclopropoxy)-9-((4-methylpyridin-2-yl)methyl)-9H-purin-8-yl)benzenesulfonamide] | 7.80
12 | Cc1ccnc(Cn2c(-c3ccc(NC(=O)[C@@H](C)O)cc3Cl)nc3c(OC4(C)CC4)ncnc32)c1 [Example T121, (R)-N-(3-chloro-4-(6-(1-methylcyclopropoxy)-9-((4-methylpyridin-2-yl)methyl)-9H-purin-8-yl)phenyl)-2-hydroxypropanamide] | 8.30
13 | Cc1ccnc(Cn2c(-c3ccc(C4CNC(=O)C4)cc3Cl)nc3c(OC4(C)CC4)ncnc32)c1 (single isomer, unassigned) [Example T174, 4-(3-chloro-4-(6-(1-methylcyclopropoxy)-9-((4-methylpyridin-2-yl)methyl)-9H-purin-8-yl)phenyl)pyrrolidin-2-one] | 8.00
14 | Cc1nnccc1Cn1c(-c2ccc(CC(N)=O)cc2Cl)nc2c(OC3(C)CC3)ncnc21 [Example T17, 2-(3-chloro-4-(6-(1-methylcyclopropoxy)-9-((3-methylpyridazin-4-yl)methyl)-9H-purin-8-yl)phenyl)acetamide] | ≤ 5.00
15 | CC1(Oc2ncnc3c2nc(-c2ccc(CC(N)=O)cc2Cl)n3Cc2cccnc2C(F)(F)F)CC1 [Example T37, 2-(3-chloro-4-(6-(1-methylcyclopropoxy)-9-((2-(trifluoromethyl)pyridin-3-yl)methyl)-9H-purin-8-yl)phenyl)acetamide] | 6.60

Other lines, results leading:

Row | pIC50 | Structure (SMILES)
16 | 8.40 | C[C@@H](CCOc1cccc(-c2nc3c(OC4(C)CC4)ncnc3n2Cc2cc(Cl)ccc2C#N)c1Cl)C(=O)O [Example U87, (S)-4-(2-chloro-3-(9-(5-chloro-2-cyanobenzyl)-6-(1-methylcyclopropoxy)-9H-purin-8-yl)phenoxy)-2-methylbutanoic acid]
17 | 8.10 | Cc1ccnc(Cn2c(-c3ccc(OCC(=O)NC4COC4)cc3Cl)nc3c(OC4(C)CC4)ncnc32)c1 [Example T323, 2-(3-chloro-4-(6-(1-methylcyclopropoxy)-9-((4-methylpyridin-2-yl)methyl)-9H-purin-8-yl)phenoxy)-N-(oxetan-3-yl)acetamide]
18 | 8.40 | CC1(Oc2ncnc3c2nc(-c2ccc(OCCCCCC(=O)O)cc2Cl)n3Cc2cccc(Cl)c2)CC1 [Example T437, 6-(3-chloro-4-(9-(3-chlorobenzyl)-6-(1-methylcyclopropoxy)-9H-purin-8-yl)phenoxy)hexanoic acid]
19 | 8.20 | CC(COc1ccc(-c2nc3c(OC4(C)CC4)ncnc3n2Cc2cccc(Cl)c2)c(Cl)c1)CC(=O)O (single isomer, unassigned) [Example T294, 4-(3-chloro-4-(9-(3-chlorobenzyl)-6-(1-methylcyclopropoxy)-9H-purin-8-yl)phenoxy)-3-methylbutanoic acid]
20 | 7.40 | Cc1ccnc(Cn2c(-c3ccc(C(=O)N4CCC[C@H]4CO)cc3Cl)nc3c(OC4(C)CC4)ncnc32)c1 [Example T466, (S)-(3-chloro-4-(6-(1-methylcyclopropoxy)-9-((4-methylpyridin-2-yl)methyl)-9H-purin-8-yl)phenyl)(2-(hydroxymethyl)pyrrolidin-1-yl)methanone]
21 | 8.10 | COc1ccc(Cl)cc1Cn1c(-c2cccc(OCCOCC(=O)O)c2Cl)nc2c(OC3(C)CC3)ncnc21 [Example U52, 2-(2-(2-chloro-3-(9-(5-chloro-2-methoxybenzyl)-6-(1-methylcyclopropoxy)-9H-purin-8-yl)phenoxy)ethoxy)acetic acid]
22 | 8.30 | CC1(Oc2ncnc3c2nc(-c2cccc(OCCCCC(=O)O)c2Cl)n3Cc2cccc(Cl)c2)CC1 [Example T292, 5-(2-chloro-3-(9-(3-chlorobenzyl)-6-(1-methylcyclopropoxy)-9H-purin-8-yl)phenoxy)pentanoic acid]
23 | 8.20 | CC(CCOc1ccc(-c2nc3c(OC4(C)CC4)ncnc3n2Cc2ccccc2F)c(Cl)c1)C(=O)O (racemic) [Example U5, 4-(3-chloro-4-(9-(2-fluorobenzyl)-6-(1-methylcyclopropoxy)-9H-purin-8-yl)phenoxy)-2-methylbutanoic acid]
